Laboratory results published in patent US5055459A, “Selective elimination of malignant cells from bone marrow by bis (acyloxy) propylphosphoramidates” (Board of Regents, The University of Texas, priority 1989, dated 1991).

How the values were obtained:
[1] = test system: extracts from L1210 cell-lines; conditions: cited from earlier work
[2] = test system: L1210 lymphatic leukemia cells; assay: In vitro cytotoxicity to L1210 lymphatic leukemia cells, 72 hr, MTT (Table 2); format: cell-based, murine; conditions: concentration that kills 50% of the cells; 72 hr at 37° C.; concentration range 0.5-20 microgram/ml

Row | SMILES | conversion to carboxyphosphamide ([1]; extracts from drug resistant L1210 cell-line) | conversion to carboxyphosphamide ([1]; extracts from drug-sensitive cell line) | ED50 [2]
1 | O=P1(N(CCCl)CCCl)NC(O)CCO1 (stereo not shown) | extensively converted to carboxyphosphamide | negligible levels of carboxyphosphamide | –
2 | COP(=O)(OCCC(OC(C)=O)OC(C)=O)N(CCCl)CCCl (stereo not shown) | – | – | 13.0 microgram/ml
3 | CCOP(=O)(OCCC(OC(C)=O)OC(C)=O)N(CCCl)CCCl (stereo not shown) | – | – | 13.6 microgram/ml

Like-named read-outs stand apart in the source and are kept apart here.
